Values of other authors, collected in publication PMC9456106, “PET Probes for Preclinical Imaging of GRPR-Positive Prostate Cancer: Comparative Preclinical Study of [^68Ga]Ga-NODAGA-AMBA and [^44Sc]Sc-NODAGA-AMBA” (International Journal of Molecular Sciences, 2022).

Conditions: cited from earlier work

In the case of “^99mTc-GGC-(Ornithine)3-BN(2-14) [[^99mTc]Tc-BN-O]”, the “tracer accumulation in the heart, lung, muscle, and spleen” value is given as “below 6 % ID/g”.
